Antibody variant affinities, Ab-14 heavy chain, assay B

From the AlphaSeq antibody data of Li et al. 2023 (doi:10.1038/s41467-023-39022-2), copy in the FLAb collection.

Target: peptide PDVDLGDISGINAS, taken from heptad repeat 2 (HR2) of SARS-CoV-2 spike.

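The variants were designed computationally from a first round of random CDR variants and then made and measured. Their group label is 14H_GP_Gen (GP: Gaussian process model; Gen: genetic algorithm; a sequence that several methods proposed may carry one label only). Affinity was read by AlphaSeq, a pooled yeast mating assay with surface-displayed partners. The frequency of each diploid, read from paired DNA barcodes, reflects how well the two displayed proteins bind. Read counts were normalised to the haploid input and turned into Kd by a linear fit to BCL2-family pairs of known affinity, for each replicate. The assay was run in six technical replicates.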

Parent scFv Ab-14: VH joined to VL by three GGGGS repeats. Changes lie in the heavy chain CDRs alone.
VH: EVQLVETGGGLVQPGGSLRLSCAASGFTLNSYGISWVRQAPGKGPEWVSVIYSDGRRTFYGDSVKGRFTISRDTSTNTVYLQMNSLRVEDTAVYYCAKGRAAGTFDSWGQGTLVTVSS
VL: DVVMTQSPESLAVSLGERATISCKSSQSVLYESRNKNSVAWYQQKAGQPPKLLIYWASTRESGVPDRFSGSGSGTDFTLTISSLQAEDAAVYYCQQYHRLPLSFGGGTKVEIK

Each variant's VH is given in full. Values are log10 of the apparent Kd in nM; lower means stronger binding. The mean shown is taken over the replicates in which the pair was detected. "ND" means that the variant was in the library but no mating with the target was seen in that replicate; the authors take this as a sign of poor binding, and no number exists. The range of this assay differs from that of the first round, and the authors advise against merging the two.

VH,"replicates, log10 nM","mean, log10 nM",empty controls
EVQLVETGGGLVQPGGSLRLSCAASGFNLNSYGISWVRQAPGKGPEWVSVIYSDGMRTFYGDSVKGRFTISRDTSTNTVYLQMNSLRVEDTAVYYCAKGRTAGTFDSWGQGTLVTVSS,ND ND ND ND ND ND,ND,0/18
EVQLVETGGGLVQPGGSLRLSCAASGFTLNEYGISWVRQAPGKGPEWVSVIYSDGRRTFYGDSVKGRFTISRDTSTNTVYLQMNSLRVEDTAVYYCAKGKAAGTFDVWGQGTLVTVSS,-0.32 -0.12 -0.34 -1.04 -0.24 -0.44,-0.42,0/18
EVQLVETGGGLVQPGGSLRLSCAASGFELNSYGISWVRQAPGKGPEWVSVIYSDGRRTFYGDSVKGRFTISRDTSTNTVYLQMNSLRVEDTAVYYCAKGNEAGTFDSWGQGTLVTVSS,-0.30 -0.38 -0.60 -0.05 -0.03 0.46,-0.15,0/18
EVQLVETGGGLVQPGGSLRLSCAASGFELNSYGISWVRQAPGKGPEWVSVIYSDGRRTFYIDSVKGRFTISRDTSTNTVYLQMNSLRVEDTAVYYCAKGKNAGTFDSWGQGTLVTVSS,0.56 1.42 0.89 0.53 0.75 1.00,0.86,0/18
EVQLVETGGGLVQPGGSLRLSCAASGFSLNSYGISWVRQAPGKGPEWVSVIYSDGRRTFYGDDVKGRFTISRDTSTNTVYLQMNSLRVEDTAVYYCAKGMTAGTFDSWGQGTLVTVSS,1.66 0.76 -0.23 0.56 0.65 0.96,0.72,0/18
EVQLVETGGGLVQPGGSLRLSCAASGFWLNSYGISWVRQAPGKGPEWVSVIYSDGRRTFYIDSVKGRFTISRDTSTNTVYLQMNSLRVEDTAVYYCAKGQTAGTFDSWGQGTLVTVSS,ND ND ND ND ND ND,ND,0/18
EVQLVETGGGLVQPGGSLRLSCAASGFHLNEYGISWVRQAPGKGPEWVSVIYSDGRRTFYGDSVKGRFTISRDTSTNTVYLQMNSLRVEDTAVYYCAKGQAAGTFDSWGQGTLVTVSS,1.78 2.10 1.70 ND 2.67 ND,2.06,0/18
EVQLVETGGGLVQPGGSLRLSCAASGFDLNSYGISWVRQAPGKGPEWVSVIYSDGRRTFYHDSVKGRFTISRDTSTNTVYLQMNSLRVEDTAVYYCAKGRMAGTFDSWGQGTLVTVSS,0.13 0.27 0.81 0.05 0.19 1.21,0.44,0/18
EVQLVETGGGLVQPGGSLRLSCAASGFTLNSYGISWVRQAPGKGPEWVSVIYSDGRRTFYGDSVKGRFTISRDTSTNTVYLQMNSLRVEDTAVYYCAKGQEAGTFDLWGQGTLVTVSS,2.02 0.94 1.15 0.85 1.00 0.11,1.01,0/18
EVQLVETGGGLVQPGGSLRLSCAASGFDLNSYGISWVRQAPGKGPEWVSVIYSDGRRTFYGDKVKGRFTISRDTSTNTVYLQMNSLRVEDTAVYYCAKGREAGTFDSWGQGTLVTVSS,-0.21 -0.34 -0.42 -0.42 -0.15 -0.18,-0.29,0/18
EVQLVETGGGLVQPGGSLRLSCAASGFDLNSYGISWVRQAPGKGPEWVSVIYSDGRRTFYGDSVKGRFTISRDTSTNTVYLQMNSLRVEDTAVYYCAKGNAAGTFDKWGQGTLVTVSS,0.06 0.42 0.02 0.32 0.14 0.33,0.21,0/18
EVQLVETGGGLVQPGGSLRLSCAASGFELNSYGISWVRQAPGKGPEWVSVIYSDGRRTFYDDSVKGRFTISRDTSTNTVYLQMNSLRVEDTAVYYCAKGRQAGTFDSWGQGTLVTVSS,1.60 1.18 1.26 1.72 0.90 1.20,1.31,1/18 (3.72)
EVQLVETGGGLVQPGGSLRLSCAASKFDLNSYGISWVRQAPGKGPEWVSVIYSDGRRTFYGDSVKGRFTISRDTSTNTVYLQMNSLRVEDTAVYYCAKGREAGTFDSWGQGTLVTVSS,ND 0.70 ND ND 0.88 ND,0.79,0/18
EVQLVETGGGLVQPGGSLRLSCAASMFNLNSYGISWVRQAPGKGPEWVSVIYSDGRRTFYGDSVKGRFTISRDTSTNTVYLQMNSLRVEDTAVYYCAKGRQAGTFDSWGQGTLVTVSS,ND ND ND ND ND ND,ND,0/18
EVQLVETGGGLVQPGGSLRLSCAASGFELNEYGISWVRQAPGKGPEWVSVIYSDGRRTFYGDSVKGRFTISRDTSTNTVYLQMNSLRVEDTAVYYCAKGRMAGTFDSWGQGTLVTVSS,ND ND ND ND ND ND,ND,0/18
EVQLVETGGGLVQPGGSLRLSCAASGFWLNEYGISWVRQAPGKGPEWVSVIYSDGRRTFYADSVKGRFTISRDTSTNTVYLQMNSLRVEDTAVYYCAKGRMAGTFDSWGQGTLVTVSS,0.83 0.58 0.96 0.54 0.79 0.70,0.73,0/18
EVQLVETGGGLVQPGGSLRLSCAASGFTLNSYGISWVRQAPGKGPEWVSVIYSDGRRTFYGDNVKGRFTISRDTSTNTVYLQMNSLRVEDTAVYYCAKGQTAGTFDTWGQGTLVTVSS,1.30 1.33 0.82 0.76 1.44 1.76,1.23,0/18
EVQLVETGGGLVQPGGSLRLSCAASGFELNSYGISWVRQAPGKGPEWVSVIYSDGRRTFYADQVKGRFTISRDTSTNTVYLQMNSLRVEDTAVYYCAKGRTAGTFDSWGQGTLVTVSS,0.34 0.24 -0.01 -0.09 0.45 0.38,0.22,1/18 (2.49)
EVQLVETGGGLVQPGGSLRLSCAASGFELNSYGISWVRQAPGKGPEWVSVIYADGRRWFYGDSVKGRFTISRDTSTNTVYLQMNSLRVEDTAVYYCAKGRAAGTFDSWGQGTLVTVSS,ND 0.49 0.88 0.98 0.59 1.11,0.81,0/18

The 2 strongest on average among those seen in every replicate, once more:

VH,"replicates, log10 nM","mean, log10 nM",empty controls
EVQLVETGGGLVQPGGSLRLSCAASGFTLNEYGISWVRQAPGKGPEWVSVIYSDGRRTFYGDSVKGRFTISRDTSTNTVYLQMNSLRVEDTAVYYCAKGKAAGTFDVWGQGTLVTVSS,-0.32 -0.12 -0.34 -1.04 -0.24 -0.44,-0.42,0/18
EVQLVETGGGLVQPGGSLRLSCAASGFDLNSYGISWVRQAPGKGPEWVSVIYSDGRRTFYGDKVKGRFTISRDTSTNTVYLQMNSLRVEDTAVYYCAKGREAGTFDSWGQGTLVTVSS,-0.21 -0.34 -0.42 -0.42 -0.15 -0.18,-0.29,0/18

The parent sequence was in this pool as ten entries: three were never detected, three once, and four in most replicates, with averages from 0.34 to 2.37. Three control strains display no target. For all heavy chain designs, 1% of the pairings with them gave a signal, with a median of 2.08 and one signal in twenty below 0.84, so weak values seen in few replicates may be background. For each scFv, signals with the empty controls are counted beside the result, with their mean in brackets. In the paper, a design with two or fewer of six values counts as a poor binder.